# Source: patent publication US12419961B2, “Docetaxel-aconitic anhydride conjugate exhibiting anti-tumor activity without in vivo toxicity” (CNPharm Co., Ltd., priority 2021, dated 2025)
# “Also recorded” adds a separate entry of the source.
# Test system: PANC-1
# Test: cell viability assay, cancer cell killing effect on PANC-1
# Format: cell-based
# Settings: FIG. 5A; pancreatic cancer cells
substance,measurement,value
docetaxel-aconitic anhydride conjugate [A3Tx],cytotoxicity against cancer cell line PANC-1,higher toxicity toward cancer cell line; also recorded: higher cytotoxicity than DTX
